# Test system: diabetic C57 mice
# Assay: Allogeneic islet transplantation in the liver of diabetic mice
# Details: 24 h and 48 h after transplant; both in the presence and in the absence of Rapamycin
smiles,measurement,value
"CC(C)Cc1ccc([C@@H](C)C(=O)NS(C)(=O)=O)cc1 [Reparixin, R(−)-2-[(4-isobutylphenyl)propionyl]-methanesulfonamide]",circulating levels of ALT,not affected
